## Antibody variant affinities, Ab-95 light chain, assay 2

The target is the same throughout: PDVDLGDISGINAS, from the HR2 region of SARS-CoV-2 spike.

The variants keep the heavy chain, the linker and the frameworks of Ab-95 (scFv order VH, a (GGGGS)3 linker, VL).
VH: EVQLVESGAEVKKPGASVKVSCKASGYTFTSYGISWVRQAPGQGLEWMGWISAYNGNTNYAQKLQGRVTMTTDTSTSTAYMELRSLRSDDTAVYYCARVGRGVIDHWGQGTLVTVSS
VL: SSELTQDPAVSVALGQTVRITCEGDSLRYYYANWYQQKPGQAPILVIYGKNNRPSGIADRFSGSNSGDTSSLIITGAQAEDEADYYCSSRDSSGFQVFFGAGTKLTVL

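Phage display of a naive human antibody library on the peptide gave the parent. Variants in AAYL52 differ from the parent at up to three CDR positions; double and triple changes were sampled at random. In AlphaSeq, yeast of one mating type display the scFv and yeast of the other type display the target. After mating in shaken culture at 30 °C for 16 h, diploids were selected and their barcode pairs sequenced. Read counts were normalised to the haploid input and turned into Kd by a linear fit to BCL2-family pairs of known affinity, for each replicate. Each pool was mated in three replicate cultures.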

Substitutions are numbered in sequence along the VL above, starting at 1 (not Kabat). Kd is apparent (estimated from mating counts) and averaged on the log scale over replicates with a signal. Smaller is tighter. "nd" marks a missing value. The strain was present, yet no cells mated with the target were sequenced in any replicate, which points to weak or no binding. Parent in this assay: reference entry 200 nM, copy in this library 180 nM.

| changes | Kd | seen in |
|---|---|---|
| S26A/S88H/G94Y | 3.8 µM | 3/3 |
| G24Y/N51E/S92G | 9.7 µM | 1/3 |
| E23Q/P54I/R90H | 32 µM | 1/3 |
| Y29D/Y30Q | 910 pM | 3/3 |
| Y30F/S93C | 240 µM | 1/3 |
| P54T/S92M/F98A | 5.0 µM | 3/3 |
| G49C/K50Q/S55R | 28 µM | 2/3 |
| L27F/P54F/S92K | 6.0 µM | 3/3 |
| A32I/S55P/S88L | 8.1 µM | 1/3 |
| N52F/Q96N | 790 nM | 3/3 |
| S26D/Y30T/R90W | 64 nM | 3/3 |
| G24N/G49N/S55C | 11 µM | 2/3 |
| L27R/K50W/P54Q | 830 nM | 1/3 |
| D25C/R28C/R53L | 22 µM | 2/3 |
| R28F/N33Y/S88E | 52 nM | 3/3 |
| G24K/S55T/G94M | nd | 0/3 |
| G24C/S89I | 780 nM | 3/3 |
| E23H/L27M/Y30T | 44 nM | 3/3 |
| S26K/R28L/N51W | nd | 0/3 |
| K50Q/R53Q/S88H | 2.9 µM | 1/3 |
| G24E/S92F/S93D | 9.0 µM | 2/3 |
| G24L/D91M/Q96H | 20 µM | 3/3 |
| G24E/G49P/F98D | 12 µM | 2/3 |
| Y30E/G49I/R53T | 120 µM | 2/3 |
| S26A/S88H/V97K | 5.1 µM | 2/3 |
| S88M/S89C/V97P | 1.3 µM | 1/3 |
| G24Q/N33E/F95E | nd | 0/3 |
| G49W/S93A/V97S | 50 µM | 1/3 |
| N33S/K50G/V97Y | 120 µM | 1/3 |
| L27P/N52R/S55N | 5.9 µM | 1/3 |
| S26Y/N33F/S92V | 67 µM | 2/3 |

Further variants, results first:

| Kd | seen in | changes |
|---|---|---|
| 23 nM | 3/3 | E23I/Y29R/Y30E |
| 250 nM | 3/3 | R90H/F95G/F98Q |
| 1.4 µM | 2/3 | Y29K/Y31N/N51P |
| 510 nM | 3/3 | E23F/S92N/S93G |
| nd | 0/3 | D25Q/Y30L/F98G |
| nd | 0/3 | N33Y/S55H/R90F |
| 770 nM | 3/3 | E23N/K50G/R53N |
| 13 µM | 2/3 | D25K/Y29Q/R90D |
| 41 µM | 1/3 | S92W/G94M/F95Y |
| 130 µM | 1/3 | R28V/N33S/R90P |
| 650 nM | 3/3 | E23G/S55L/D91T |
| 290 µM | 1/3 | A32W/F98Y |
| nd | 0/3 | N33A/F95M/Q96I |
| 870 nM | 3/3 | Y31L/N51E/R90H |
| 48 nM | 3/3 | D25E/S92E/S93N |
| 960 nM | 3/3 | E23T/G49S/N51M |
| 6.6 µM | 1/3 | S26F/A32N/R53K |
| 1.1 µM | 3/3 | F95D/Q96K/V97A |
| 1.1 µM | 3/3 | E23V/Y30W/F95V |
| 2.0 µM | 3/3 | S89F/R90T/S92M |
| nd | 0/3 | N33A/V97N |
| 130 nM | 3/3 | K50V/P54L/F98L |
| 25 µM | 2/3 | G24A/A32F/N52R |
| 5.1 µM | 1/3 | Y30L/K50R/V97H |
| 16 µM | 1/3 | A32E/D91A/V97F |
| 130 nM | 3/3 | E23L/S88M/F98S |
| 96 nM | 3/3 | S55V/D91Y/S92D |
| 12 µM | 1/3 | S26Y/S89K/G94F |
| 21 µM | 2/3 | N51H/S92D/Q96M |
| 40 µM | 2/3 | R28N/K50F/R53P |
| 7.1 µM | 1/3 | E23F/S26E/D91M |
| 2.7 µM | 3/3 | Y29G/G49W |

For reference, 10 entries of the list once more:

changes	Kd	seen in
Y29G/G49W	2.7 µM	3/3
E23F/S26E/D91M	7.1 µM	1/3
S26Y/S89K/G94F	12 µM	1/3
S89F/R90T/S92M	2.0 µM	3/3
E23V/Y30W/F95V	1.1 µM	3/3
A32E/D91A/V97F	16 µM	1/3
G24E/G49P/F98D	12 µM	2/3
G24Y/N51E/S92G	9.7 µM	1/3
R90H/F95G/F98Q	250 nM	3/3
S26Y/N33F/S92V	67 µM	2/3

Three control strains display no target. For library AAYL52, 28% of the pairings with them gave a signal, with a median of 8.2 µM and one signal in twenty below 800 nM, so weak values seen in few replicates may be background.

From the AlphaSeq antibody data of Engelhart et al. 2022 (doi:10.1038/s41597-022-01779-4), copy in the FLAb collection.